Drawing on PubChem BioAssay AID1645883 (National Center for Advancing Translational Sciences (NCATS), 2021), this text covers max response for 17 molecules.

Chains of the proteins cited; added tags and fusions are not shown. Lines headed by an entry give the natural chain unless they say otherwise; changes in a name come on top.
UniProt O95398: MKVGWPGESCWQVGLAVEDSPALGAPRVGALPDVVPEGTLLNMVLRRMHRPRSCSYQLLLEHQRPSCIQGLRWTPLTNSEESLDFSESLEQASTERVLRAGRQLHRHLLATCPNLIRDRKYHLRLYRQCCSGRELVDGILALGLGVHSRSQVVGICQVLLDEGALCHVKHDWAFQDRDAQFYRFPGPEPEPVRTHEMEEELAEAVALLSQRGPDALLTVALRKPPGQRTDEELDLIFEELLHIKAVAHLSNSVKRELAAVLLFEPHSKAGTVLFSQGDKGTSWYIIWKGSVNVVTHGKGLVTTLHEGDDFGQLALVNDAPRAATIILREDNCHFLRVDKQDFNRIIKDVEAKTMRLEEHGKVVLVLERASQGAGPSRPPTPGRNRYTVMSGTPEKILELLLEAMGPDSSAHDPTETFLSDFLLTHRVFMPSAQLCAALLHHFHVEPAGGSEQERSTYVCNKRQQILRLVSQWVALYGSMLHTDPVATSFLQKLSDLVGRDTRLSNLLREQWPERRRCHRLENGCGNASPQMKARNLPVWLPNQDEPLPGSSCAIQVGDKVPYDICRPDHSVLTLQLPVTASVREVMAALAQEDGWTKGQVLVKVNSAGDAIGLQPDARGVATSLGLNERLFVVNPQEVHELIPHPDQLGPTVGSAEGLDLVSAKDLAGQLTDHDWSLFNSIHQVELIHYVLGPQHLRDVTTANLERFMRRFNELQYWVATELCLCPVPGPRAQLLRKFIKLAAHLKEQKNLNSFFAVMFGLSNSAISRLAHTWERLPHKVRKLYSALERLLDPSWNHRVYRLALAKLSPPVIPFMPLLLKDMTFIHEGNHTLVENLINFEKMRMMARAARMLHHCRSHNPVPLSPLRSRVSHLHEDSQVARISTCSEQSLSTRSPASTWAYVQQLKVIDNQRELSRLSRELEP

Where “and” joins values, the source holds several entries; their conditions need not be identical. Identical values can stand only once. This is a selection; strong and weak results do not stand in their true shares. Results filed as inconclusive are left out. Calls of active or inactive are those of the source. Calls follow the shape of the dose curve; as a rule, active = well fitted activation curve with a large enough effect; inconclusive = small, poorly fitted or top-dose-only effect; inactive = no such curve, though single readings can be large or run the other way.
% is scaled to controls: 0 for no effect and ±100 for the full control effect.

This assay has as its target Rap guanine nucleotide exchange factor 3 (Homo sapiens) (UniProt O95398). The experiment in a line: Validation qHTS for agonist of cAMP-regulated guanine nucleotide exchange factor 3 (EPAC1). Also: nearly all actives have a fitted effect of over 70% in size. The conditions noted are these: EPAC1 Rap1b BODIPY-GDP exchange, fluorescence; active compounds read high; percent of cAMP control response. The source says: Assay Provider (PI): Xiaodong Cheng Ph.D.
The University of Texas Medical Branch, […], TX
In multi-cellular eukaryotic organisms, the effects of cAMP are transduced by two ubiquitously-expressed intracellular cAMP receptors, the classic protein kinase A/cAMP-dependent protein kinase (PKA/cAPK) and the more recently discovered exchange protein directly activated by cAMP/cAMP-regulated guanine nucleotide exchange factor (EPAC/cAMP-GEF). Both PKA and EPAC are ubiquitously expressed in all tissues, and an increase in intracellular cAMP levels will lead to the activation of both PKA and EPAC. Therefore, careful dissections of the individual role and relative contribution of EPAC and PKA within the overall cAMP signaling in various model systems are critical for further elucidating the mechanism of cAMP signaling. To date no EPAC-specific antagonists and agonist, as well as isoform-specific agonists have been reported, and developing EPAC-specific pharmacological probes to determine the physiological functions that EPAC play in the overall cAMP-mediated signaling remains a major challenge within the research field. Furthermore, identified regulators of EPAC may lead to new mechanism-based therapeutic strategies specifically targeting the EPAC / cAMP-signaling components as EPAC has been implicated to play important roles in major human pathological conditions such as diabetes, heart disease, and cancer.
This qHTS will be used to screen the Molecular Libraries Small Molecule Repository (MLSMR) as a concentration-titration series using the NCGC unique quantitative screening (qHTS) platform to find activators for EPAC1. In addition, this assay will also be used as a counterscreen for the EPAC2 qHTS. This fluorescent based assay is developed and validated for EPAC1 that measures exchange using EPAC effector Rap1 complex with BODIPY-GDP, a GDP analog with a tethered fluorophores. Activators are identified by monitoring the change in fluorescence signal as the exchanged free BODIPY-GDP has a reduced fluorescence compared to Rap1-bound BODIPY-GDP. Increase in signal (activation) is the desired outcome for the EPAC1 agonist while no activity in this assay is desired for the EPAC2 agonist counterscreen.
[1] de Rooij, J., Zwartkruis, F. J., Verheijen, M. H., Cool, R. H., Nijman, S. M., Wittinghofer, A., and Bos, J.L. (1998) Nature 396, 474-477.
Briefly, three uL of reagents (100 nM EPAC1, 250 nM RAP1B-BODIPY-GDP, 50 uM GDP) were dispensed into a 1536-well Greiner black solid-bottom medium binding assay plate. Controls and test compounds (23 nL) were transferred to the plate via a Kalypsys pin tool equipped with a 1536-pin array. The plates were centrifuged at 1,000 rpm for 15 seconds followed by 5 minute incubation at room temperature. The assay plates were read at 5 minute intervals for 30 minutes in the ViewLux plate reader using 480nm excitation and 540nm emission filters. The results were normalized to the agonist positive control of 6.5 mM cAMP.
A general note: qHTS replaces the single test concentration by a dilution series.
Turning to `COc1cc([N+](=O)[O-])c([N+](=O)[O-])cc1OC`, the max response was inactive: -13%.
Take `CC(=O)C1=CCCC2CCC1N2` (configuration not stated): the max response is inactive: -12%.
Consider `Cc1cc(C=O)ccc1N(CCCl)CCCl`, for which the max response was inactive: -7.35%.
In the case of `Nc1c(O)cc([N+](=O)[O-])cc1[N+](=O)[O-]`, the max response was inactive: 13.3%.
Regarding `CN(C(=O)Cc1ccc(Cl)c(Cl)c1)[C@H]1CCCC[C@@H]1N1CCCC1`, the max response was inactive: 1.12% [middle of 8 runs].
In the case of `CCNC(C)Cc1ccc2c(c1)OCO2` (configuration not stated), the max response was inactive: -0.295%.
To `O=C(OC1CN2CCC1CC2)c1ccccc1` (configuration not stated) belongs inactive: -4.03%.
In the case of `CN(C(=O)Cc1ccc(Cl)c(Cl)c1)[C@@H]1CCCC[C@@H]1N1CCCC1`, the max response was inactive: -8.3%.
As for `O=[N+]([O-])c1cc([N+](=O)[O-])c2nc[nH]c2c1`, the figure is inactive: 21.3%.
As for `CN(C(=O)Cc1ccccc1)[C@H]1CC[C@@]2(CCCO2)C[C@@H]1N1CCCC1`, the figure is inactive: 3.76%.
For `Cc1cc([N+](=O)[O-])cc([N+](=O)[O-])c1O`, the max response is inactive: 9.54%.
With `CN(C(=O)Cc1ccc(Cl)c(Cl)c1)[C@@H]1CCCC[C@H]1N1CCCC1`, the max response was inactive: -13.9%.
As for `CN(CCCl)Cc1cc(Cl)c(NC2=NCCN2)c(Cl)c1`, the max response was inactive: -8.15% and inactive: -6.95%.
As for `NC(=O)Nc1ccc([As](=O)(O)O)cc1`, the figure is inactive: -35.2%; as for `CN(C(=O)Cc1ccc(Cl)c(Cl)c1)[C@H]1CC[C@@]2(CCCO2)C[C@@H]1N1CCCC1`, inactive: -8.32%; as for `CN(C(=O)Cc1ccccc1)[C@@H]1CC[C@]2(CCCO2)C[C@H]1N1CCCC1`, inactive: 4.11%.
To `CN(C(=O)Cc1ccc(Cl)c(Cl)c1)[C@@H]1CC[C@]2(CCCO2)C[C@H]1N1CCCC1` belongs inactive: -2.19%.
